Substrate in the data set: O=C(O)CCC(=O)C(=O)O
Description: purified protein, by the assay type. The settings on record: other: 2OG, n = 4, n = 3, means ± 95% confidence.

Setting [1] is: Fe(II): MINA53 (Met26-Val464), peptide: MINA53 (Met1-Val464).
Where [2] appears, read: Fe(II): NO66 (Ser183-Asn641), peptide: NO66 (Gln116-Asn641).

Among the data in PMC8667043, “First-in-Class Inhibitors of the Ribosomal Oxygenase MINA53” (Journal of Medicinal Chemistry, 2021) are Km and Vmax values, retold here.

B1: MINA53 (Homo sapiens) (protein)
chain: MPKKAKPTGSGKEEGPAPCKQMKLEAAGGPSALNFDSPSSLFESLISPIKTETFFKEFWEQKPLLIQRDDPALATYYGSLFKLTDLKSLCSRGMYYGRDVNVCRCVNGKKKVLNKDGKAHFLQLRKDFDQKRATIQFHQPQRFKDELWRIQEKLECYFGSLVGSNVYITPAGSQGLPPHYDDVEVFILQLEGEKHWRLYHPTVPLAREYSVEAEERIGRPVHEFMLKPGDLLYFPRGTIHQADTPAGLAHSTHVTISTYQNNSWGDFLLDTISGLVFDTAKEDVELRTGIPRQLLLQVESTTVATRRLSGFLRTLADRLEGTKELLSSDMKKDFIMHRLPPYSAGDGAELSTPGGKLPRLDSVVRLQFKDHIVLTVLPDQDQSDEAQEKMVYIYHSLKNSRETHMMGNEEETEFHGLRFPLSHLDALKQIWNSPAISVKDLKLTTDEEKESLVLSLWTECLIQVV
Take B1: under setting [1], the Km was 3.2 ± 0.6 µM and the Vmax was determined as 0.32 ± 0.03 µM/min.

B2: NO66 (Homo sapiens) (protein)
chain: MDGLQASAGPLRRGRPKRRRKPQPHSGSVLALPLRSRKIRKQLRSVVSRMAALRTQTLPSENSEESRVESTADDLGDALPGGAAVAAVPDAARREPYGHLGPAELLEASPAARSLQTPSARLVPASAPPARLVEVPAAPVRVVETSALLCTAQHLAAVQSSGAPATASGPQVDNTGGEPAWDSPLRRVLAELNRIPSSRRRAARLFEWLIAPMPPDHFYRRLWEREAVLVRRQDHTYYQGLFSTADLDSMLRNEEVQFGQHLDAARYINGRRETLNPPGRALPAAAWSLYQAGCSLRLLCPQAFSTTVWQFLAVLQEQFGSMAGSNVYLTPPNSQGFAPHYDDIEAFVLQLEGRKLWRVYRPRVPTEELALTSSPNFSQDDLGEPVLQTVLEPGDLLYFPRGFIHQAECQDGVHSLHLTLSTYQRNTWGDFLEAILPLAVQAAMEENVEFRRGLPRDFMDYMGAQHSDSKDPRRTAFMEKVRVLVARLGHFAPVDAVADQRAKDFIHDSLPPVLTDRERALSVYGLPIRWEAGEPVNVGAQLTTETEVHMLQDGIARLVGEGGHLFLYYTVENSRVYHLEEPKCLEIYPQQADAMELLLGSYPEFVRVGDLPCDSVEDQLSLATTLYDKGLLLTKMPLALN
In the case of B2, under setting [2], the Km was 0.83 ± 0.09 µM and the Vmax amounted to 0.021 ± 0.001 µM/min.
